{"source": "patent US20070027110A1", "about": "“Double salts of (-)-hydroxycitric acid with an amine and a group II a metal and a process for preparing the same” (priority 2004, published 2007)", "origin": "cited, not measured here", "details": "prior-art salt (Singh et al.)"}
{"substance": "calcium salt of HCA", "values": [{"measurement": "solubility in water", "result": "not very soluble in water"}]}
